These results are taken from ChEMBL document CHEMBL2177099, “Discovery of 1-[4-(N-benzylamino)phenyl]-3-phenylurea derivatives as non-peptidic selective SUMO-sentrin specific protease (SENP)1 inhibitors” (Bioorg Med Chem Lett, 2012).

Active and inactive are the calls of the source. No cut-off for these calls is given here.

For assay [1], the target named is T1, Sentrin-specific protease 2 (Homo sapiens) (UniProt Q9HC62).
T1 sequence (whole entry): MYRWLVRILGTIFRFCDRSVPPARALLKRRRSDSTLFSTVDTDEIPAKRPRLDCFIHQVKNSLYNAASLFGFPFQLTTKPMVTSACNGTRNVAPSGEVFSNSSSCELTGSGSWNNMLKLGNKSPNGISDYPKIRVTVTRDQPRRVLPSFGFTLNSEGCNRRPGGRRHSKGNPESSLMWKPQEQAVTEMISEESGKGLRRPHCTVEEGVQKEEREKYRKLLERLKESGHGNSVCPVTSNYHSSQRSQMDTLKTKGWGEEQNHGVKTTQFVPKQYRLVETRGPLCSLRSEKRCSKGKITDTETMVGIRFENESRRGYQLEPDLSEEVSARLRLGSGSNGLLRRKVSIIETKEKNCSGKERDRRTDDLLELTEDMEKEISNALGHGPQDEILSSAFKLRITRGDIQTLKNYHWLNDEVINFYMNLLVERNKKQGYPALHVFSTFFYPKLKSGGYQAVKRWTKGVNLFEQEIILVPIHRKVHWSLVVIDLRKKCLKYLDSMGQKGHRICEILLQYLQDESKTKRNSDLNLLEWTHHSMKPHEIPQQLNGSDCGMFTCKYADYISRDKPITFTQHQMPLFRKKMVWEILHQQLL
Briefly: Inhibition of recombinant human SENP2 catalytic domain assessed as release of fluorescent AMC from SUMO-1-AMC preincubated at 10 to 100 uM for 10 mins before substrate addition by fluorescence assay.

Assay [2] has as its target T2, Sentrin-specific protease 1 (Homo sapiens) (UniProt Q9P0U3).
T2 sequence (whole entry): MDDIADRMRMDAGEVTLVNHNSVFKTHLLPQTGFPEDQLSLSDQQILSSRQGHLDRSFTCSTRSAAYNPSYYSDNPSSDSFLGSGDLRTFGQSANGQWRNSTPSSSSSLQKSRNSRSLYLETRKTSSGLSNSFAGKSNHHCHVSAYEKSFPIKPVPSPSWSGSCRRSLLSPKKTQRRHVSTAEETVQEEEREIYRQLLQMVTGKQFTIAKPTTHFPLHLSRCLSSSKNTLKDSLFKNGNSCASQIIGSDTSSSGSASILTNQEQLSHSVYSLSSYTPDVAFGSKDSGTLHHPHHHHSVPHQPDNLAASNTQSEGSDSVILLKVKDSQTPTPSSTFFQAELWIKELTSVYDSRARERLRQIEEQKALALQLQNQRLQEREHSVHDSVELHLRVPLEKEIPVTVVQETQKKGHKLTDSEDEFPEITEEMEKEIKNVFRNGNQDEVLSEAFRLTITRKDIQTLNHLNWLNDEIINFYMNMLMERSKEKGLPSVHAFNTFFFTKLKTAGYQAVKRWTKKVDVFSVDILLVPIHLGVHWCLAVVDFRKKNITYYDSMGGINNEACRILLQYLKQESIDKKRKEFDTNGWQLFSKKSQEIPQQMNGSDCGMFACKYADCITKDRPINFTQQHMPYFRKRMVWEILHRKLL
Particulars: 100 uM.

Take `CCN1C(=O)C=CC1=O`: the inhibition result in assay [1] was “Active”.

Consider `COC(=O)c1cccc(CNc2ccc(NC(=O)Nc3ccccc3)cc2)c1`, for which, in assay [2], the inhibition came to 40%.

By inhibition is commonly meant the share of the control response that was lost under treatment.
